Measured values published in patent publication EP0556947A1, “Use of M1-selective antimuscarinic pyridobenzodiazepinones for the treatment and prevention of axial myopia” (MERCK & CO. INC., priority 1992, dated 1993).
pKd: −log10 of the molar value.

The chains behind the UniProt entries cited, without tags or fusion partners.
UniProt P10980, whole entry: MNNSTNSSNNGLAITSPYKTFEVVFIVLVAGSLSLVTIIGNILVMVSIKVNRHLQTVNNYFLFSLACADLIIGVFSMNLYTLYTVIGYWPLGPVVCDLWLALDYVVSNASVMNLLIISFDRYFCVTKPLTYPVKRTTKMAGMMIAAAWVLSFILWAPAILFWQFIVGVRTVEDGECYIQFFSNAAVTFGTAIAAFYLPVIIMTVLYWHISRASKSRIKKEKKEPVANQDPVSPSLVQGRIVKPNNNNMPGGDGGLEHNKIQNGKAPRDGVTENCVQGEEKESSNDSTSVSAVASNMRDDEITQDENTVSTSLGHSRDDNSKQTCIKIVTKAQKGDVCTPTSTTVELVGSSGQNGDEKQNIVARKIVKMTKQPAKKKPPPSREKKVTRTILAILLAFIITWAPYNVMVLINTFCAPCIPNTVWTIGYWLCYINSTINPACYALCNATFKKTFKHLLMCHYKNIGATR

Biological target: M₂ receptors (Rattus norvegicus, UniProt P10980)
Assay: ³H-AFDX-384 radioligand binding assay, rat heart
Settings: Scatchard analysis, tested as the radiolabelled form, tested form: tritiated radioligand (3H position not s)

- pKd: 8.24
Compound: CCCN(CCC)CC1CCCCN1CCNC(=O)N1c2ccccc2C(=O)Nc2cccnc21 (stereo not shown)
